Assay results as given in US8258098B2, “Antitumoral treatments” (Pharma Mar, S.A., priority 2006, dated 2012).

Tests used:
Experiment in all cases: Net tumor volume in tumor xenografts
Assay type in all cases: in vivo, female athymic mice
[1] = system: CaKi-1 renal tumor xenografts; conditions: Aplidine 50 μg/kg i.p., Avastin 5.0 mg/kg i.p., IL-2 2 μg/mouse i.p., INF-α 200,000 U/mouse s.c.
Excerpt: (§1) The purpose of this study was to evaluate the antitumor activity of Aplidine when administered with an antitumoral standard agent, both administered using multiple dosing schedule in several types of tumor xenografts in female athymic mice.
(§2) Athymic nude female mice were received from Harlan Sprague Dawley, Madison, Wis. at 4-5 weeks of age. Mice were acclimated to the laboratory for at least one week prior to implantation of tumor. Animals were housed in static cages with food and water allowed ad libitum. Experimental animals were implanted with either tumor fragments derived from transplantation established human tumors or with cells obtain directly from in vitro culture. Tumors were implanted subcutaneously on the right flank on Day 0.
(§3) Tumor size measurements were recorded twice weekly beginning on day 4 or 5 using vernier calipers. The formula to calculate volume for a prolate ellipsoid was used to estimate tumor volume from 2-dimensional tumor measurements: tumor volume (mm^3)=(length×width^2)÷2. Assuming unit density, volume was converted to weight (i.e., 1 mm^3=1 mg). When tumors reached an approximate volume range of 100±15 mg, mice were randomized into treatment and control groups. Treatments were initiated and administered on an individual body weight basis. A dose range finding study was performed on each tumor model to determine the appropriate dose level of each compound used in the combination studies.
(§4) Table 9 and FIGS. 74, 75 and 76 show kinetics of net tumor volume after initiation of treatment with aplidine (APL) as single agent or in combination with Bevacizumab (Avastin®), Interleukin-2 (IL-2) and Interferon-α 2a (INF-α) in CaKi-1 renal tumor xenografts. Aplidine was administered every day for 9 consecutive days by i.p injection, saline control (sterile saline) every day for 9 consecutive days by i.p injection, Bevacizumab (Avastin®) every 3 days for a total of 4 treatments by i.p. injection, IL-2 every day during 5 weekdays (Monday-Friday) for 3 weeks by i.p. injection and INF-α every day during 5 weekdays (Monday-Friday) for 3 weeks by s.c. injection.

[2] = system: MRI-H121 renal tumor xenografts; conditions: Aplidine 25 μg/kg i.p., Avastin 2.5 mg/kg i.p., IL-2 1 μg/mouse i.p., INF-α 200,000 U/mouse s.c.
Excerpt: as §1, §2, §3
as §4, with “Table 10” for “Table 9”, “FIGS. 77, 78” for “FIGS. 74, 75”, “and 79” for “and 76”, “in MRI-H121” for “in CaKi-1”

[3] = system: LOX-IMVI melanoma tumor xenografts; conditions: IL-2 2 μg/mouse i.p., INF-α 200,000 U/mouse s.c.
Excerpt: as §2
as §3, with “When tumors reached an approximate volume range of 100±15 mg, mice were randomized into treatment and control groups.” left out

[4] = system: MRI-H187 melanoma tumor xenografts; conditions: Aplidine 50 μg/kg i.p., IL-2 2 μg/mouse i.p., INF-α 200,000 U/mouse s.c.
Excerpt: as §2
as §3, with “When tumors reached an approximate volume range of 100±15 mg, mice were randomized into treatment and control groups.” left out

Substance | Net Tumor Volume ± S.E.M. ([1]; CaKi-1, DAY 13) [mg] | Net Tumor Volume ± S.E.M. ([1]; CaKi-1, DAY 15) [mg] | Net Tumor Volume ± S.E.M. ([1]; CaKi-1, DAY 19) [mg] | Net Tumor Volume ± S.E.M. ([1]; CaKi-1, DAY 22) [mg] | Net Tumor Volume ± S.E.M. ([1]; CaKi-1, DAY 26) [mg] | Net Tumor Volume ± S.E.M. ([1]; CaKi-1, DAY 29) [mg] | Net Tumor Volume ± S.E.M. ([1]; CaKi-1, DAY 33) [mg] | Net Tumor Volume ± S.E.M. ([1]; CaKi-1, DAY 36) [mg] | Net Tumor Volume ± S.E.M. ([1]; CaKi-1, DAY 41) [mg] | Net Tumor Volume ± S.E.M. ([1]; CaKi-1, DAY 47) [mg] | Net Tumor Volume ± S.E.M. ([1]; CaKi-1, DAY 50) [mg] | Net Tumor Volume ± S.E.M. ([2]; MRI-H121, DAY 11) [mg] | Net Tumor Volume ± S.E.M. ([2]; MRI-H121, DAY 14) [mg] | Net Tumor Volume ± S.E.M. ([2]; MRI-H121, DAY 18) [mg] | Net Tumor Volume ± S.E.M. ([2]; MRI-H121, DAY 19) [mg] | Net Tumor Volume ± S.E.M. ([2]; MRI-H121, DAY 21) [mg] | Net Tumor Volume ± S.E.M. ([2]; MRI-H121, DAY 26) [mg] | Net Tumor Volume ± S.E.M. ([2]; MRI-H121, DAY 29) [mg] | Net Tumor Volume ± S.E.M. ([2]; MRI-H121, DAY 32) [mg] | Net Tumor Volume ± S.E.M. ([2]; MRI-H121, DAY 35) [mg] | further results
IL-2: Interleukin-2 (IL-2), standard of care agent | 103 ± 3 | 143 ± 15 | 224 ± 21 | 324 ± 25 | 484 ± 49 | 623 ± 59 | 746 ± 77 | 956 ± 102 | 1206 ± 116 | 1684 ± 120 | 2403 ± 218 | 108 ± 5 | 201 ± 29 | 402 ± 60 | 366 ± 56 | 475 ± 87 | 737 ± 121 | 922 ± 163 | 1138 ± 205 | 1175 ± 192 | Net Tumor Volume ± S.E.M. ([2]; MRI-H121, DAY 39): 1615 ± 273 mg; Net Tumor Volume ± S.E.M. ([2]; MRI-H121, DAY 42): 1873 ± 310 mg; Net Tumor Volume ± S.E.M. ([3]; DAY 6, Aplidine 50 μg/kg i.p.): 111 ± 5 mg; Net Tumor Volume ± S.E.M. ([3]; DAY 9, Aplidine 50 μg/kg i.p.): 357 ± 51 mg; Net Tumor Volume ± S.E.M. ([3]; DAY 13, Aplidine 50 μg/kg i.p.): 1541 ± 247 mg; Net Tumor Volume ± S.E.M. ([3]; DAY 16, Aplidine 50 μg/kg i.p.): 3315 ± 614 mg; Net Tumor Volume ± S.E.M. ([4]; MRI-H187, DAY 21): 113 ± 4 mg; Net Tumor Volume ± S.E.M. ([4]; MRI-H187, DAY 23): 171 ± 24 mg; Net Tumor Volume ± S.E.M. ([4]; MRI-H187, DAY 27): 314 ± 46 mg; Net Tumor Volume ± S.E.M. ([4]; MRI-H187, DAY 30): 420 ± 68 mg; Net Tumor Volume ± S.E.M. ([4]; MRI-H187, DAY 34): 647 ± 88 mg; Net Tumor Volume ± S.E.M. ([4]; MRI-H187, DAY 37): 843 ± 90 mg; Net Tumor Volume ± S.E.M. ([4]; MRI-H187, DAY 40): 1072 ± 136 mg; Net Tumor Volume ± S.E.M. ([4]; MRI-H187, DAY 42): 1215 ± 158 mg; Net Tumor Volume ± S.E.M. ([4]; MRI-H187, DAY 48): 1672 ± 166 mg; Net Tumor Volume ± S.E.M. ([4]; MRI-H187, DAY 51): 2005 ± 202 mg
INF-α: Interferon-α 2a (INF-α), standard of care agent | 105 ± 3 | 162 ± 14 | 239 ± 28 | 312 ± 43 | 496 ± 60 | 613 ± 92 | 734 ± 99 | 867 ± 86 | 1125 ± 111 | 1473 ± 149 | 1777 ± 197 | 110 ± 6 | 166 ± 15 | 331 ± 32 | 341 ± 32 | 371 ± 37 | 591 ± 69 | 704 ± 91 | 809 ± 96 | 898 ± 108 | Net Tumor Volume ± S.E.M. ([2]; MRI-H121, DAY 39): 1457 ± 165 mg; Net Tumor Volume ± S.E.M. ([2]; MRI-H121, DAY 42): 1747 ± 210 mg; Net Tumor Volume ± S.E.M. ([3]; DAY 6, Aplidine 50 μg/kg i.p.): 110 ± 4 mg; Net Tumor Volume ± S.E.M. ([3]; DAY 9, Aplidine 50 μg/kg i.p.): 329 ± 39 mg; Net Tumor Volume ± S.E.M. ([3]; DAY 13, Aplidine 50 μg/kg i.p.): 1452 ± 252 mg; Net Tumor Volume ± S.E.M. ([3]; DAY 16, Aplidine 50 μg/kg i.p.): 2188 ± 465 mg; Net Tumor Volume ± S.E.M. ([4]; MRI-H187, DAY 21): 115 ± 5 mg; Net Tumor Volume ± S.E.M. ([4]; MRI-H187, DAY 23): 169 ± 19 mg; Net Tumor Volume ± S.E.M. ([4]; MRI-H187, DAY 27): 272 ± 40 mg; Net Tumor Volume ± S.E.M. ([4]; MRI-H187, DAY 30): 398 ± 54 mg; Net Tumor Volume ± S.E.M. ([4]; MRI-H187, DAY 34): 653 ± 99 mg; Net Tumor Volume ± S.E.M. ([4]; MRI-H187, DAY 37): 776 ± 115 mg; Net Tumor Volume ± S.E.M. ([4]; MRI-H187, DAY 40): 912 ± 149 mg; Net Tumor Volume ± S.E.M. ([4]; MRI-H187, DAY 42): 1104 ± 202 mg; Net Tumor Volume ± S.E.M. ([4]; MRI-H187, DAY 48): 1521 ± 311 mg; Net Tumor Volume ± S.E.M. ([4]; MRI-H187, DAY 51): 1978 ± 450 mg
